In patent US5837843, “Modified protein C” (Oklahoma Medical Research Foundation, dated 1998):

What was measured:
[1] = target: human activated protein C (APC), wild type (human) (UniProt P04070)
[2] = target: APC-PT Gla (activated chimeric protein C with the Gla domain and hydrophobic stack of prothrombin) (human) (UniProt P04070)

- inhibition of factor Va inactivation by 1.4 µM prothrombin in the first stage [1]: 100 fold
- inhibition of factor Va inactivation by 1.4 µM prothrombin in the first stage [2]: 5 fold
Substance: human prothrombin (from UniProt P00734)
